pEC50, pIC50: −log10 of the molar value.
Legend:
[1] = molecular target: T1, human VPAC2 (Homo sapiens, UniProt P41587); assay: Alpha screen cAMP in vitro potency, human VPAC2 receptor; format: cell-based
T1 construct: expressed in transfected cells
T1 sequence (P41587 24-438): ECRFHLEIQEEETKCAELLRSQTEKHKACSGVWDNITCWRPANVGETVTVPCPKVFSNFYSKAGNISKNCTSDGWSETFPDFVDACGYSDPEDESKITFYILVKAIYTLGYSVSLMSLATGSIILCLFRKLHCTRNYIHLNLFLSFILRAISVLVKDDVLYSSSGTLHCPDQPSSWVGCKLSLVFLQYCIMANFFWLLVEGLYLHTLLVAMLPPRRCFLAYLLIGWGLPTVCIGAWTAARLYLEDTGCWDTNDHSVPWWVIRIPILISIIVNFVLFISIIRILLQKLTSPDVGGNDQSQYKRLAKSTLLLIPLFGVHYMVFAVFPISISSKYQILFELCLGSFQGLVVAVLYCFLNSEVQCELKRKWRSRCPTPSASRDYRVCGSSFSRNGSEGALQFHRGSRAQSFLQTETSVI
Procedure: Alpha screen: Cells are washed in the culture flask once with PBS. Then, the cells are rinsed with enzyme free dissociation buffer. The dissociated cells are removed. The cells are then spun down and washed in stimulation buffer. For each data point, 50,000 cells suspended in stimulation buffer are used. To this buffer, Alpha screen acceptor beads are added along with the stimuli. This mixture is incubated for 60 minutes. Lysis buffer and Alpha screen donor beads are added and are incubated for 60 to 120 minutes. The Alpha screen signal (indicative of intracellular cAMP levels) is read in a suitable instrument (e.g. AlphaQuest from Perkin-Elmer). Steps including Alpha screen donor and acceptor beads are performed in reduced light.

Chains of the proteins cited; added tags and fusions are not shown. Residues count along the entry.
UniProt P32241, 31-457: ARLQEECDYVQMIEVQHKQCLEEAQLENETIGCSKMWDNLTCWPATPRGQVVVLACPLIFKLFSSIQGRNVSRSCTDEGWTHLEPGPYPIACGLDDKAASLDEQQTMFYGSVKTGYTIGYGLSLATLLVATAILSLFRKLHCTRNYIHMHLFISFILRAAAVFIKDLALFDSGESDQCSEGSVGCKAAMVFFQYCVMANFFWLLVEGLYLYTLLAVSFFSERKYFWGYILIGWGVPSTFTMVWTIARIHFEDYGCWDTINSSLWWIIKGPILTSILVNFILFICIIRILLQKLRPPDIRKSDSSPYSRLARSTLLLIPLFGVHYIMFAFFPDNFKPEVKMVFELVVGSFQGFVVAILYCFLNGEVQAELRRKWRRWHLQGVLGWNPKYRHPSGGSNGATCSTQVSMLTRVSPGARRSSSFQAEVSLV

[2] = Rat serum stability studies (remaining active peptide by DiscoveRx cAMP on CHO-VPAC2 cells); format: in vitro ADME; conditions: 37° C.; for Rat Serum Stability (estimated purity in % after 18 hours): 10 μM peptide in rat serum, versus 4° C. aliquot with aprotinin
Procedure: Store the aliquot with aprotinin at 4° C. Store the aliquot without aprotinin at 37° C. […] […] Incubate in room temperature for 30 minutes. Remove the supernatant. […] Incubate on the shaker (300 rpm) for 1 hour. Proceed as normal with the DiscoveRx kit. Include cAMP standards in column 12. Determine EC50 values from the cAMP assay data.

[3] = molecular target: T2, rat VPAC2 receptor (Rattus norvegicus, UniProt P35000); assay: DiscoveRx in vitro potency, CHO-PO cells transiently transfected with rat VPAC 2 receptor DNA; format: cell-based; parameters: expressed in transfected cells; host or cells: CHO-PO, transient
T2 sequence (P35000 23-437): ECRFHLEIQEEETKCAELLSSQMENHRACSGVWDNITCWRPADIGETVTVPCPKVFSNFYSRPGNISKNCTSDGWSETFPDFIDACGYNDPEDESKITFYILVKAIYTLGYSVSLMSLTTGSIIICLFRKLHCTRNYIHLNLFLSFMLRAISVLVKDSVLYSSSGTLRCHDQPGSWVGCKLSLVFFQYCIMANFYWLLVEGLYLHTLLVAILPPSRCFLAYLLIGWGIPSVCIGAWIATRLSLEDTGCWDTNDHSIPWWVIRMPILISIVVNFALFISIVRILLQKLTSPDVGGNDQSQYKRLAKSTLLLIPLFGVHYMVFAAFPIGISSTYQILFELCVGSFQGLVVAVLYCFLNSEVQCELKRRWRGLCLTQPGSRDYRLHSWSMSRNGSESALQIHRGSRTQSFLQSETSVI
Procedure: Also, the cells are washed twice. […] The stimuli are present for 30 minutes. Then, the assay buffer is gently removed.

[4] = molecular target: human VPAC1 (Homo sapiens, UniProt P32241); assay: Filter binding assay, membranes of cells transiently transfected with human VPAC1, 125I-labeled VIP tracer (Table 2); parameters: expressed in transfected cells
Procedure: (§1) For this assay, the solutions and equipment include:
(§2) Presoak solution: 0.5% Polyethyleneamine in Aqua dest.
(§3) Buffer for flushing filter plates: 25 mM HEPES pH 7.4
(§4) Blocking buffer: 25 mM HEPES pH 7.4; 0.2% protease free BSA
(§5) Assay buffer: 25 mM HEPES pH 7.4; 0.5% protease free BSA
(§6) Dilution and assay plate: PS-Microplate, U form
(§7) Filtration Plate Multiscreen FB Opaque Plate; […] Type B Glasfiber filter
(§8) In order to prepare the filter plates, aspirate the presoak solution by vacuum filtration. Flush the plates twice with 200 μL flush buffer. Add 200 μL blocking buffer to the filter plate. The filter plate is then incubated […] for 1 hour at room temperature.
(§9) Fill the assay plate with 25 μL assay buffer, 25 μL membranes (2.5 μg) suspended in assay buffer, 25 μL compound (agonist) in assay buffer, and 25 μL tracer (about 40000 cpm) in assay buffer. Incubate the filled plate for 1 hour with shaking.
(§10) Conduct the transfer from assay plate to filter plate. Aspirate the blocking buffer by vacuum filtration and wash two times with flush buffer. Transfer 90 μL from the assay plate to the filter plate. Aspirate the 90 μL transferred from assay plate and wash three times with 200 μL flush buffer. Remove the plastic support. Dry for 1 hour at 60° C. Add 30 μL Microscint. Perform the count.

[5] = molecular target: T1, human VPAC2; assay: Filter binding assay, membranes of stable VPAC2 cell line, 125I-labeled VIP tracer (Table 2)
Procedure: as §1, §2, §3, §4, §5, §6, §7, §8, §9, §10

CCCCCC(=O)N[C@@H](Cc1c[nH]cn1)C(=O)N[C@@H](CO)C(=O)N[C@@H](CC(=O)O)C(=O)N[C@@H](C)C(=O)N[C@H](C(=O)N[C@@H](Cc1ccccc1)C(=O)N[C@H](C(=O)N[C@@H](CC(=O)O)C(=O)N[C@@H](CC(N)=O)C(=O)N[C@@H](Cc1ccc(O)cc1)C(=O)N[C@H](C(=O)N[C@@H](CCCNC(=N)N)C(=O)N[C@@H](CC(C)C)C(=O)N[C@@H](CCCNC(=N)N)C(=O)NC(C)(C)C(=O)N[C@@H](CCC(N)=O)C(=O)N[C@H](C(=O)N[C@@H](C)C(=O)N[C@@H](C)C(=O)NC(C)(C)C(=O)N[C@@H](CCCCN)C(=O)N[C@@H](Cc1ccc(O)cc1)C(=O)N[C@@H](CC(C)C)C(=O)N[C@@H](CCC(N)=O)C(=O)N[C@@H](CO)C(=O)N[C@H](C(=O)N[C@H](CCCCN)C(=O)N[C@H](CCCCN)C(=O)NCC(=O)NCC(=O)N1CCC[C@H]1C(=O)N[C@@H](CO)C(=O)N[C@@H](CO)C(=O)NCC(=O)N[C@@H](C)C(=O)N1CCC[C@H]1C(=O)N1CCC[C@H]1C(=O)N1CCC[C@H]1C(=O)N[C@@H](CO)C(=O)O)[C@@H](C)CC)C(C)C)[C@@H](C)O)[C@@H](C)O)C(C)C [Agonist P353]
pEC50 [1]: 9.74 | Rat Serum Stability (estimated purity in % after 18 hours) [2]: 31.23%

CCCCCC(=O)N[C@@H](Cc1c[nH]cn1)C(=O)N[C@@H](CO)C(=O)N[C@@H](CC(=O)O)C(=O)N[C@@H](C)C(=O)N[C@H](C(=O)N[C@@H](Cc1ccccc1)C(=O)N[C@H](C(=O)N[C@@H](CC(=O)O)C(=O)N[C@@H](CC(N)=O)C(=O)N[C@@H](Cc1ccc(O)cc1)C(=O)N[C@H](C(=O)N[C@@H](CCCNC(=N)N)C(=O)N[C@@H](CC(C)C)C(=O)N[C@@H](CCCNC(=N)N)C(=O)NC(C)(C)C(=O)N[C@@H](CCC(N)=O)C(=O)N[C@H](C(=O)N[C@@H](C)C(=O)N[C@@H](C)C(=O)NC(C)(C)C(=O)N[C@@H](CCCCN)C(=O)N[C@@H](Cc1ccc(O)cc1)C(=O)N[C@@H](CC(C)C)C(=O)N[C@@H](CCC(N)=O)C(=O)N[C@@H](CO)C(=O)N[C@H](C(=O)N[C@@H](CCCCN)C(=O)N[C@@H](CCCCNC(=N)N)C(=O)NCC(=O)NCC(=O)N1CCC[C@H]1C(=O)N[C@@H](CO)C(=O)N[C@@H](CO)C(=O)NCC(=O)N[C@@H](C)C(=O)N1CCC[C@H]1C(=O)N1CCC[C@H]1C(=O)N1CCC[C@H]1C(=O)N[C@@H](CO)C(=O)O)[C@@H](C)CC)C(C)C)[C@@H](C)O)[C@@H](C)O)C(C)C [Agonist P354]
pEC50 [1]: 9.85 | Rat Serum Stability (estimated purity in % after 18 hours) [2]: 15.10%

CCCCCC(=O)N[C@@H](Cc1c[nH]cn1)C(=O)N[C@@H](CO)C(=O)N[C@@H](CC(=O)O)C(=O)N[C@@H](C)C(=O)N[C@H](C(=O)N[C@@H](Cc1ccccc1)C(=O)N[C@H](C(=O)N[C@@H](CC(=O)O)C(=O)N[C@@H](CC(N)=O)C(=O)N[C@@H](Cc1ccc(O)cc1)C(=O)N[C@H](C(=O)N[C@@H](CCCNC(=N)N)C(=O)N[C@@H](CC(C)C)C(=O)N[C@@H](CCCNC(=N)N)C(=O)NC(C)(C)C(=O)N[C@@H](CCC(N)=O)C(=O)N[C@H](C(=O)N[C@@H](C)C(=O)N[C@@H](C)C(=O)NC(C)(C)C(=O)N[C@@H](CCCCN)C(=O)N[C@@H](Cc1ccc(O)cc1)C(=O)N[C@@H](CC(C)C)C(=O)N[C@@H](CCC(N)=O)C(=O)N[C@@H](CO)C(=O)N[C@H](C(=O)N[C@@H](CCCCN)C(=O)NC(C)(C)C(=O)N[C@@H](CCCCN)C(=O)NCC(=O)NCC(=O)N1CCC[C@H]1C(=O)N[C@@H](CO)C(=O)N[C@@H](CO)C(=O)NCC(=O)N[C@@H](C)C(=O)N1CCC[C@H]1C(=O)N1CCC[C@H]1C(=O)N1CCC[C@H]1C(=O)N[C@@H](CO)C(=O)O)[C@@H](C)CC)C(C)C)[C@@H](C)O)[C@@H](C)O)C(C)C [Agonist P349]
pEC50 [1]: 10.10 | Rat Serum Stability (estimated purity in % after 18 hours) [2]: 41.22%

CCCCCC(=O)N[C@@H](Cc1c[nH]cn1)C(=O)N[C@@H](CO)C(=O)N[C@@H](CC(=O)O)C(=O)N[C@@H](C)C(=O)N[C@H](C(=O)N[C@@H](Cc1ccccc1)C(=O)N[C@H](C(=O)N[C@@H](CC(=O)O)C(=O)N[C@@H](CC(N)=O)C(=O)N[C@@H](Cc1ccc(O)cc1)C(=O)N[C@H](C(=O)N[C@@H](CCCN)C(=O)N[C@@H](CC(C)C)C(=O)N[C@@H](CCCNC(=N)N)C(=O)NC(C)(C)C(=O)N[C@@H](CCC(N)=O)C(=O)N[C@H](C(=O)N[C@@H](C)C(=O)N[C@@H](C)C(=O)NC(C)(C)C(=O)N[C@@H](CCCCN)C(=O)N[C@@H](Cc1ccc(O)cc1)C(=O)N[C@@H](CC(C)C)C(=O)N[C@@H](CCC(N)=O)C(=O)N[C@@H](CO)C(=O)N[C@H](C(=O)N[C@@H](CCCCNC(=N)N)C(=O)N[C@@H](CCCCNC(=N)N)C(=O)NCC(=O)NCC(=O)N1CCC[C@H]1C(=O)N[C@@H](CO)C(=O)N[C@@H](CO)C(=O)NCC(=O)N[C@@H](C)C(=O)N1CCC[C@H]1C(=O)N1CCC[C@H]1C(=O)N1CCC[C@H]1C(=O)N[C@@H](CO)C(=O)O)[C@@H](C)CC)C(C)C)[C@@H](C)O)[C@@H](C)O)C(C)C [Agonist P335]
pEC50 [3]: 10.30 | pEC50 [1]: 9.66 | Rat Serum Stability (estimated purity in % after 18 hours) [2]: 98.66% | Rat Serum Stability (Estimated purity in % after 72 hours) ([2]; rat serum, 72 hours): 22.0% | pIC50 [4]: < 5.52 | pIC50 [5]: 9.41

Source: US20080026996A1, “Selective Vpac2 Receptor Reptide Agonists” (ELI LILLY AND COMPANY, priority 2004, published 2008)
